Experimental data taken from ChEMBL document CHEMBL6134870 (J Med Chem, 2025).

Assay: in vivo
Conditions: female, CD-1 IGS, mouse, iv, 0.3 mg/kg

SMILES: C=C=CC(=O)NCCCc1ccn2c(=O)cc(CNCc3ccc(-c4ccccc4)cc3)nc2c1O
- half-life: ~1.5 h
